Chains of the proteins cited; added tags and fusions are not shown. Residues count along the entry.
UniProt P25440, 74-180: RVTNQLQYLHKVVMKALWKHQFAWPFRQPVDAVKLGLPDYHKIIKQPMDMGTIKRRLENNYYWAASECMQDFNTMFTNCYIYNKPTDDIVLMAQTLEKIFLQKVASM

In article PMC9683399 (Journal of medicinal chemistry, 2022):

Target: BRD2 D1 (Homo sapiens, UniProt P25440)

Question: With Cc1sc2c(c1C)C(c1ccc(Cl)cc1)=N[C@@H](CC(=O)OC(C)(C)C)c1nnc(C)n1-2 [(+)-JQ1] as the compound, how does the “binding to BRD2 D1 by ITC” value read?
Answer: potent binding
